BindingDB's records for patent US9200006 (Medivir, 2015)

Chains of the proteins cited; added tags and fusions are not shown.
UniProt P25774, whole entry: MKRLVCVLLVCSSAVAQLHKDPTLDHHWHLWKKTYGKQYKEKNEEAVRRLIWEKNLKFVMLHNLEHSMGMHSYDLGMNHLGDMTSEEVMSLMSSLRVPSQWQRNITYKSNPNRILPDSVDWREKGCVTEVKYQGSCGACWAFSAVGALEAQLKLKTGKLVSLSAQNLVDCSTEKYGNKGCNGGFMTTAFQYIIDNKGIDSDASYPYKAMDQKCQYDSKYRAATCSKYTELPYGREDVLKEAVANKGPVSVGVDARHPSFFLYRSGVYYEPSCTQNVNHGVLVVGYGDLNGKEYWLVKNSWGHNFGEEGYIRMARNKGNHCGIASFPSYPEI

Target: Cathepsin S (Homo sapiens, UniProt P25774)
Test: Biological Assay (Test 1)
Conditions: pH 7
Procedure: Standard assay conditions for the determination of kinetic constants used a fluorogenic peptide substrate, typically H-D-Ala-Leu-Lys-AMC, and were determined in either 100 mM Mes/Tris, pH 7.0 containing 1 mM EDTA and 10 mM 2-mercaptoethanol or 100 mMNa phosphate, imM EDTA, 0.1% PEG4000 pH 6.5 or 100 mM Na acetate, pH 5.5 containing 5 mM EDTA and 20 mM cysteine, in each case optionally with 1M DTT as stabiliser. The enzyme concentration used was 5 nM. The stock substrate solution was prepared at 10 mM in DMSO. Screens were carried out at a fixed substrate concentration of 60 uM and detailed kinetic studies with doubling dilutions of substrate from 250 uM. The total DMSO concentration in the assay was kept below 3%. All assays were conducted at ambient temperature. Product fluorescence (excitation at 390 nm, emission at 460 nm) was monitored with a Labsystems Fluoroskan Ascent fluorescent plate reader. The first test compound prepared in DMSO is added to column 1 of the top row.

Ki: > 10 µM
Compound: C#C[C@@H]1CN(C(=O)[C@H](CC(C)C)NC(=O)c2ccc(-c3csc(N4CCN(C)CC4)n3)c(F)c2)[C@@H]2C(=O)CO[C@H]12 [US9200006, 3]
